4 substances from patent publication US20200164083A1 can be followed below.

Experiment [1] deals with capture reagent (antibody) of the exenatide ELISA kit (Peninsula Laboratories Inc., # S-1311). The experiment in a line: ELISA (Peninsula Lab exenatide kit).
The target in another experiment is GLP-1 receptor (UniProt P43220). Description: cell-based or functional assay.

Where only a bound is given, the exact number is not on record here.

As usually defined, the EC50 is the concentration giving half of the maximal effect. High values mean weaker potency, low ones greater potency.

In the case of [N28A]exenatide (peptide), the EC50 in experiment [1] turned out to be 6 nM.

For [N28D]exenatide (synthetic) (peptide), the EC50 in experiment [1] was greater than 100 nM. Also, the EC50, cAMP assay (GLP1R cAMP Hunter bioassay) with GLP-1 receptor is 0.041 nM.

[N28K]exenatide (peptide): in experiment [1], the EC50 was greater than 100 nM.

In the experiment with GLP-1 receptor, exenatide (peptide) yielded an EC50, cAMP assay (GLP1R cAMP Hunter bioassay) of 0.029 nM; an EC50, pM in GLP1R cAMP Hunter assay of 130 pM; an EC50 in a GLP-1RA assay of 0.017 nM.
